{"sequences": {"note": "Protein sequences, listed by entry. Tags and fused reporters are not part of them.", "UniProt P22909, whole entry": "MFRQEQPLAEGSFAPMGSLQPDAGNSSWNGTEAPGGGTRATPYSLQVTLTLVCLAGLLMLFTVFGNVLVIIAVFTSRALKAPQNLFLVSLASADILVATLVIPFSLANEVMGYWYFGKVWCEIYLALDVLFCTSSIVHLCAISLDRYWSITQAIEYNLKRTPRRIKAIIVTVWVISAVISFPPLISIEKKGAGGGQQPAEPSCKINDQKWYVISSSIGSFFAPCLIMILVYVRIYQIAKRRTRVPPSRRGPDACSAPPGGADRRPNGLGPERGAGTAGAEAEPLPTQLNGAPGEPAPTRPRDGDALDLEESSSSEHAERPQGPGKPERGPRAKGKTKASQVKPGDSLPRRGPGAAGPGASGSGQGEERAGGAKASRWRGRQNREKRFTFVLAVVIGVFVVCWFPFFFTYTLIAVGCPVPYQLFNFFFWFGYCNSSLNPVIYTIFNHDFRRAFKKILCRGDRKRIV", "UniProt P14842, whole entry": "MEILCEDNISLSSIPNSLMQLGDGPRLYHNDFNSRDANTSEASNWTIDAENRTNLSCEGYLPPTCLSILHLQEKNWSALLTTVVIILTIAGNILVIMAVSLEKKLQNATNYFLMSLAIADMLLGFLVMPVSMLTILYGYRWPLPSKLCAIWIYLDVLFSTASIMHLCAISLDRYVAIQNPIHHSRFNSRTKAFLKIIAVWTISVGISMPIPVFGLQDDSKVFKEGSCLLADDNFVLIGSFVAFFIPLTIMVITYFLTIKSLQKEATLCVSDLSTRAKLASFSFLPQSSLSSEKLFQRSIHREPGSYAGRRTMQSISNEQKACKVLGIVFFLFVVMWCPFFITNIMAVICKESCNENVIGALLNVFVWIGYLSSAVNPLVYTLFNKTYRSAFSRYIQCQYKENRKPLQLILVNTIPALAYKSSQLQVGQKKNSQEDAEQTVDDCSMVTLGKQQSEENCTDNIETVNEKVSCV"}, "source": "patent US4902799A", "about": "“Bicyclic alkoxy- and alkylthio-substituted aminoalcohols” (Maggioni-Winthrop S.p.A., priority 1985, dated 1990)", "key": {"toxic adrenaline doses": {"system": "toxic adrenaline doses", "experiment": "Protection against toxic adrenaline doses", "format": "in vivo, mouse (male mice CrI:CD 1(CR) BR)", "conditions": "for PD50 (50% protective dose): 14.5 mg/kg l-adrenaline i.p. 2 hrs after oral treatment, mortality at 24 hrs; for protective activity compared with known drugs: oral, mice"}, "male mice [1]": {"system": "male mice", "experiment": "Anti-hypoxic activity (gasping time after decapitation)", "format": "in vivo, mouse", "conditions": "pretreatment 90 min"}, "platelet aggregation": {"system": "platelet aggregation", "experiment": "Collagen-induced platelet aggregation ex vivo", "format": "in vivo, rat", "conditions": "0.15 mM/kg oral, blood 1 hr after treatment, collagen 2-4 mcg/ml"}, "[2]": {"biological_target": "alpha2-adrenergic receptors (Rattus norvegicus, UniProt P22909)", "experiment": "Inhibition of 3H-Clonidine binding to rat brain membrane"}, "[3]": {"biological_target": "serotoninergic2 (5-HT2) receptors (Rattus norvegicus, UniProt P14842)", "experiment": "Inhibition of 3H-Spiperone binding to rat brain membrane"}, "[4]": {"system": "alpha1-adrenergic receptors", "experiment": "Inhibition of 3H-Prazosin binding to rat brain membrane"}, "male mice [5]": {"system": "male mice", "experiment": "Acute toxicity per os"}, "[6]": {"system": "phenylephrine (PHE) induced hypertension", "experiment": "Antagonism against phenylephrine (PHE) induced hypertension", "conditions": "test drugs 1 mg/kg i.v."}, "[7]": {"system": "SH rats (spontaneously hypertensive rats)", "experiment": "Anti-hypertensive activity in spontaneously hypertensive rats, tail artery plethysmography", "format": "in vivo, rat", "conditions": "SHR"}}, "note": "Only a part of the results on these compounds is given; other tests are left out."}
{"smiles": "COc1cc2ccc(C(O)CN3CCC(n4c(=O)[nH]c5ccccc54)CC3)cc2cc1OC", "note": "(centres unmarked)", "values": [{"measurement": "PD50 (50% protective dose)", "setting": "toxic adrenaline doses", "result": 5.05, "unit": "mg/kg/p.o."}]}
{"smiles": "COc1ccc2cc(C(O)C(C)N3CCC(n4c(=O)[nH]c5cc(Cl)ccc54)CC3)ccc2c1", "note": "(centres unmarked)", "values": [{"measurement": "Gasping time, % diff. from control", "setting": "male mice [1]; 100 mg/kg/p.o.", "result": "+61.3%"}, {"measurement": "PD50 (50% protective dose)", "setting": "toxic adrenaline doses", "result": 5.8, "unit": "mg/kg/p.o."}, {"measurement": "% Inhibition, Aggregation rate", "setting": "platelet aggregation", "result": 64.6, "unit": "%"}, {"measurement": "% Inhibition, Maximum aggregation", "setting": "platelet aggregation", "result": 64.0, "unit": "%"}]}
{"smiles": "CSc1ccc2cc(C(O)C(C)N3CCC(n4c(=O)[nH]c5ccccc54)CC3)ccc2c1", "note": "(centres unmarked)", "values": [{"measurement": "% Inhibition of specific binding", "setting": "[2]; 5.4 × 10^-6 M", "result": 26.5, "unit": "%"}, {"measurement": "% Inhibition of specific binding", "setting": "[2]; 5.4 × 10^-7 M", "result": 8, "unit": "%"}, {"measurement": "% Inhibition of specific binding", "setting": "[3]; 5.4 × 10^-6 M", "result": 25, "unit": "%"}, {"measurement": "% Inhibition of specific binding", "setting": "[3]; 5.4 × 10^-7 M", "result": 0, "unit": "%"}, {"measurement": "PD50 (50% protective dose)", "setting": "toxic adrenaline doses", "result": 0.6, "unit": "mg/kg/p.o."}, {"measurement": "protective activity compared with known drugs", "setting": "toxic adrenaline doses", "result": "comparable with Prazosin"}, {"measurement": "% Inhibition of specific binding", "setting": "[4]; 5.4 × 10^-6 M", "result": 99, "unit": "%"}, {"measurement": "% Inhibition of specific binding", "setting": "[4]; 5.4 × 10^-7 M", "result": 99, "unit": "%"}, {"measurement": "LD50", "setting": "male mice [5]", "result": "higher than 2000 mg/kg"}]}
{"smiles": "CC(C)Oc1ccc2cc(C(O)C(C)N3CCC(n4c(=O)[nH]c5ccccc54)CC3)ccc2c1", "note": "(centres unmarked)", "values": [{"measurement": "Gasping time, % diff. from control", "setting": "male mice [1]; 50 mg/kg/p.o.", "result": "+39.3%"}, {"measurement": "Gasping time, % diff. from control", "setting": "male mice [1]; 100 mg/kg/p.o.", "result": "+85.7%"}, {"measurement": "PD50 (50% protective dose)", "setting": "toxic adrenaline doses", "result": 1.8, "unit": "mg/kg/p.o."}, {"measurement": "PHE dosis causing a 50 mm Hg increase of the arterial pressure, in comparison with the controls", "setting": "[6]", "result": "20-25 times"}]}
{"smiles": "COc1cc2ccc(C(O)C(C)N3CCC(n4c(=O)[nH]c5ccccc54)CC3)cc2cc1OC", "note": "(centres unmarked)", "values": [{"measurement": "Gasping time, % diff. from control", "setting": "male mice [1]; 50 mg/kg/p.o.", "result": "+52.5%"}, {"measurement": "Gasping time, % diff. from control", "setting": "male mice [1]; 100 mg/kg/p.o.", "result": "+126.2%"}, {"measurement": "PD50 (50% protective dose)", "setting": "toxic adrenaline doses", "result": 0.95, "unit": "mg/kg/p.o."}, {"measurement": "protective activity compared with known drugs", "setting": "toxic adrenaline doses", "result": "comparable with Prazosin"}, {"measurement": "Max. changes in systolic pressure", "setting": "[7]; 1 mg/kg p.o.", "result": -14.4, "unit": "mmHg"}, {"measurement": "Max. changes in systolic pressure", "setting": "[7]; 5 mg/kg p.o.", "result": -31, "unit": "mmHg"}, {"measurement": "Max. changes in systolic pressure", "setting": "[7]; 15 mg/kg p.o.", "result": -48.2, "unit": "mmHg"}, {"measurement": "PHE dosis causing a 50 mm Hg increase of the arterial pressure, in comparison with the controls", "setting": "[6]", "result": "20-25 times"}, {"measurement": "LD50", "setting": "male mice [5]", "result": "higher than 1000 mg/kg"}]}
{"smiles": "CC(C)Oc1ccc2cc(C(O)CN3CCC(n4c(=O)[nH]c5ccccc54)CC3)ccc2c1", "note": "(centres unmarked)", "values": [{"measurement": "PD50 (50% protective dose)", "setting": "toxic adrenaline doses", "result": 10.0, "unit": "mg/kg/p.o."}, {"measurement": "LD50", "setting": "male mice [5]", "result": "higher than 2000 mg/kg"}]}
{"smiles": "COc1ccc2cc(C(O)CN3CCC(n4c(=O)[nH]c5ccccc54)CC3)ccc2c1", "note": "(centres unmarked)", "values": [{"measurement": "% Inhibition of specific binding", "setting": "[2]; 5.4 × 10^-6 M", "result": 13, "unit": "%"}, {"measurement": "% Inhibition of specific binding", "setting": "[2]; 5.4 × 10^-7 M", "result": 0, "unit": "%"}, {"measurement": "% Inhibition of specific binding", "setting": "[3]; 5.4 × 10^-6 M", "result": 83, "unit": "%"}, {"measurement": "% Inhibition of specific binding", "setting": "[3]; 5.4 × 10^-7 M", "result": 36, "unit": "%"}, {"measurement": "PD50 (50% protective dose)", "setting": "toxic adrenaline doses", "result": 5.4, "unit": "mg/kg/p.o."}, {"measurement": "Max. changes in systolic pressure", "setting": "[7]; 1 mg/kg p.o.", "result": -13.6, "unit": "mmHg"}, {"measurement": "Max. changes in systolic pressure", "setting": "[7]; 5 mg/kg p.o.", "result": -39, "unit": "mmHg"}, {"measurement": "Max. changes in systolic pressure", "setting": "[7]; 15 mg/kg p.o.", "result": -68, "unit": "mmHg"}, {"measurement": "LD50", "setting": "male mice [5]", "result": "higher than 2000 mg/kg"}]}
